Data published in US20060286112A1.

Tests used:
[1] = substrate: I domain-GST, recombinant GST fusion protein containing amino acids 127-340 of the human VLA-1 α1 subunit (human) (UniProt P56199); experiment: SPR, mAb captured on anti-human IgG, I domain-GST in solution, 1 mM Mg2+
[2] = substrate: I domain-GST, recombinant GST fusion protein containing amino acids 127-340 of the human VLA-1 α1 subunit (human) (UniProt P56199); experiment: competition: I domain-GST binding to immobilized collagen IV, anti-GST-HRP
[3] = biological target: biotinylated I domain-GST (human) (UniProt P56199); experiment: competition: I domain-btn binding to immobilized collagen IV, streptavidin-HRP

Kd [1]: 0.116 nM
koff [1]: 3.67e-05 s⁻¹
kon [1]: 316000 M⁻¹ s⁻¹
IC50 [2]: 9.9 nM
IC50 [3]: 7 nM
B1: 7.7 (antibody, V domains shown)
VH: QVQLVQSGAEVKKPGASVKVSCKASGYTFTGYFMHWVRQAPGQGLEWMGWINPNSGGTNYAQKFQGRVTMTRDTSISTAYMELSRLRSDDTAVYYCARSVLRYFDWLLWWGQGTLVTVSS
VL: DIVMTQSPESLAVSLGERTTINCKSSQSVLFSSNNENHLAWYQQKPGQPPKLLIYWASTRESGVPDRFSGSGSGTDFTLTISSLQAEDVAVYYCQQYYITPCSFGQGTKLEIK
